{"source": "patent EP0339681B1", "about": "“Antitumor antibiotic substance” (MEIJI SEIKA KAISHA LTD., priority 1988, dated 1989)", "system": "P-388 mouse leukemia cells", "experiment": "Cytotoxic effect: 50% growth inhibition of P-388 cells", "conditions": "37°C, 72 hours, 5% CO₂"}
{"substance": "SF2582C sulfate [Compound 4]", "values": [{"measurement": "IC₅₀", "result": 1000, "unit": "ng/mL"}]}
